Chains of the proteins cited; added tags and fusions are not shown. Residues count along the entry.
UniProt H9KVH3, 33-395 limits assumed: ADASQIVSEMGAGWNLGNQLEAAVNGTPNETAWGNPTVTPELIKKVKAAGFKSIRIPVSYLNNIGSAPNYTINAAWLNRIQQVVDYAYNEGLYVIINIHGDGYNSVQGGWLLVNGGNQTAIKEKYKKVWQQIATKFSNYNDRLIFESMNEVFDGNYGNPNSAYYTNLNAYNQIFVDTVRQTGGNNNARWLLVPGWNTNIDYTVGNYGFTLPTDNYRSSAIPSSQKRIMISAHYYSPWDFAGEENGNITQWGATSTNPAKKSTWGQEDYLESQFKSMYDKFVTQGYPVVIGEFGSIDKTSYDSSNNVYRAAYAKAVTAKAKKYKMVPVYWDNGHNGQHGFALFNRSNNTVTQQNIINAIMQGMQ
UniProt P56680, whole entry: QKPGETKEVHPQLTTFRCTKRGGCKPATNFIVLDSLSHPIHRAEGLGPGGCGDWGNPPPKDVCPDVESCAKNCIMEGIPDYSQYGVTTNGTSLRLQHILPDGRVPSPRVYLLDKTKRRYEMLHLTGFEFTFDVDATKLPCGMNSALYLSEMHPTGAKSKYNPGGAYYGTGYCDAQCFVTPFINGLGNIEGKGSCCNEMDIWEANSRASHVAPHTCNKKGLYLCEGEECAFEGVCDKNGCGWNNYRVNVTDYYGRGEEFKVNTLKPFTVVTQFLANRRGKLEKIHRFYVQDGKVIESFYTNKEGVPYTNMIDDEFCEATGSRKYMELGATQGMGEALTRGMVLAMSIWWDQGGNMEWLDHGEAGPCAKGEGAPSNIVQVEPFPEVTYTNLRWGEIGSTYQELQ
UniProt B3PCS3, 38-570 limits assumed: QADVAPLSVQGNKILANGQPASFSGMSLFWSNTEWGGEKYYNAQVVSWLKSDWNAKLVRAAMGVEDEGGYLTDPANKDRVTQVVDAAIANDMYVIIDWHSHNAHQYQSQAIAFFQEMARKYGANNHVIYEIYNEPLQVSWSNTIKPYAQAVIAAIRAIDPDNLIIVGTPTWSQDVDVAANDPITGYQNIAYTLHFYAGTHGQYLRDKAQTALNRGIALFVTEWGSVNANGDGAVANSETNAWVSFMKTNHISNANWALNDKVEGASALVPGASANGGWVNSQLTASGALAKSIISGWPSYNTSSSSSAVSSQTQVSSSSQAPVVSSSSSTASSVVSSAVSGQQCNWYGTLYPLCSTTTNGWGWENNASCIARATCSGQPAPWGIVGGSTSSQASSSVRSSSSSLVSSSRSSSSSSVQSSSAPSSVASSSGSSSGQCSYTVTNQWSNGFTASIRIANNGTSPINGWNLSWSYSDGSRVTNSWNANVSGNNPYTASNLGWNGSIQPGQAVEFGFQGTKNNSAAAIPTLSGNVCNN
UniProt B3PD52, 40-468 limits assumed: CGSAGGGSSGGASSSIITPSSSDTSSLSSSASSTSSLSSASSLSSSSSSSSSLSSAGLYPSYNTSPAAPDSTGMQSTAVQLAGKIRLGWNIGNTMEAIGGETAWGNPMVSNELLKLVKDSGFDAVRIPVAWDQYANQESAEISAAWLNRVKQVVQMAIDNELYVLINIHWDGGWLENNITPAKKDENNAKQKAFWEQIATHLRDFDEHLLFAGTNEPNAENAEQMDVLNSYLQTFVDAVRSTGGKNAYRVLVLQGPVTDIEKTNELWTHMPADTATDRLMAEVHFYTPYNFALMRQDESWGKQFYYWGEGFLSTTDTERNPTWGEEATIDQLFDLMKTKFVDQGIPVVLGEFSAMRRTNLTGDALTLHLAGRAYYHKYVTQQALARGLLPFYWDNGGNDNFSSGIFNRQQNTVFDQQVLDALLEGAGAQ

According to publication PMC10755729, “A Multiplexing Activity-Based Protein-Profiling Platform for Dissection of a Native Bacterial Xyloglucan-Degrading System” (ACS Central Science, 2023):

Assays:
Format in all cases: biochemical
[1] = target: PpXG5 (Paenibacillus pabuli, UniProt H9KVH3); assay: irreversible inhibition kinetics; details: read-out: KI, covalent, active-site directed
Source text: irreversible inhibition kinetics on PpXG5

[2] = target: HiCel7B (Mycothermus thermophilus, UniProt P56680); assay: irreversible inhibition kinetics; details: read-out: KI, covalent, active-site directed
Source text: irreversible inhibition kinetics on HiCel7B

[3] = target: CjCel5B (Cellvibrio japonicus, UniProt B3PCS3); assay: irreversible inhibition kinetics; details: read-out: KI, covalent, active-site directed, crystal structure of complex also solved here
Source text: irreversible inhibition kinetics on CjCel5B

[4] = target: CjCel5D; CjGH5D (Cellvibrio japonicus, UniProt B3PD52); assay: irreversible inhibition kinetics, residual activity on 6C4MU-XXXG; details: read-out: KI, covalent, active-site directed, crystal structure of complex also solved here
Source text: irreversible inhibition kinetics, residual activity on 6C4MU-XXXG on CjCel5D; CjGH5D

**Q.** How did the KI (inactivation) [1] turn out when `[N-]=[N+]=NCCOCCOCCOCC(=O)N[C@H]1[C@H](O)[C@@H](O)[C@H](O[C@H]2[C@H](O)[C@@H](O)[C@@H]3O[C@@H]3[C@@H]2CO)O[C@@H]1CO[C@H]1OC[C@@H](O)[C@H](O)[C@H]1O` was run?
**A.** > 500 µM

**Q.** What about the KI (inactivation) [2] of the same molecule?
**A.** 22 µM

**Q.** And the KI (inactivation) [3]?
**A.** > 250 µM

**Q.** What about the KI (inactivation) [4] of the same molecule?
**A.** > 500 µM
